For one sequence, EC50 and IC50 results are on record in patent US20080146500A1, “Selective Vpac2 Receptor Peptide Agonists” (priority 2004, published 2008).

For one experiment, the target named is T1, human VPAC2 (Homo sapiens, UniProt P41587).
T1 construct: expressed in transfected cells
T1 sequence (P41587 24-438): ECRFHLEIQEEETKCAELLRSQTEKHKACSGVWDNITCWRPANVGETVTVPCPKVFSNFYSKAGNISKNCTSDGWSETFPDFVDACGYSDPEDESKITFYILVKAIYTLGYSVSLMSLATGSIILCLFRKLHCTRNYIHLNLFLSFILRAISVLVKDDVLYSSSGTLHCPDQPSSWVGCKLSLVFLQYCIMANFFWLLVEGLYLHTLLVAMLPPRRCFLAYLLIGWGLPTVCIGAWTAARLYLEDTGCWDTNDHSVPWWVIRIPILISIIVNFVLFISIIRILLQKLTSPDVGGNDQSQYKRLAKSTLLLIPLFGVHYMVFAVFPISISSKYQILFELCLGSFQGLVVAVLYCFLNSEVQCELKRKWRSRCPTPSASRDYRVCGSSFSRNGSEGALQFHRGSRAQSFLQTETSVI
The experiment can be described thus: Alpha screen in vitro potency: human VPAC2-R mediated cAMP generation. It is filed as cell-based.

In another experiment the target is T2, human PAC1 (Homo sapiens, UniProt P41586).
T2 construct: expressed in transfected cells
T2 sequence (P41586 21-468): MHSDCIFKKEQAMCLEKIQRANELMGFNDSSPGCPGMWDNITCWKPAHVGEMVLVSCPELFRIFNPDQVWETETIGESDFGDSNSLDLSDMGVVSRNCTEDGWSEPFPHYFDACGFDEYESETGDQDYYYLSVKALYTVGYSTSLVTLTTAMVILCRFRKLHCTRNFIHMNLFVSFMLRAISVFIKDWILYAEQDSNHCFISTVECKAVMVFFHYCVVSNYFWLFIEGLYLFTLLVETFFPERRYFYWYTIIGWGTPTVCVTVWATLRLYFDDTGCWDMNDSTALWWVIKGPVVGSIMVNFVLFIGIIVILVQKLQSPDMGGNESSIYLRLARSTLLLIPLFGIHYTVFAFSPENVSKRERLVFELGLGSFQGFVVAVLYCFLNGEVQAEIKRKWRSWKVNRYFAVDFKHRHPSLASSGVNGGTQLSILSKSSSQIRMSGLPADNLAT
Kind of experiment: Filter binding assay, membranes from cells transiently transfected with human PAC1, 125I-labeled PACAP-27 tracer. The note with it: read-out: Human receptor binding (IC50; nM) PAC1. The protocol:
For this assay, the solutions and equipment include:
Presoak solution: 0.5% Polyethyleneamine in Aqua dest.
Buffer for flushing filter plates: 25 mM HEPES pH 7.4
Blocking buffer: 25 mM HEPES pH 7.4; 0.2% protease free BSA
Assay buffer: 25 mM HEPES pH 7.4; 0.5% protease free BSA
Dilution and assay plate: PS-Microplate, U form
Filtration Plate Multiscreen FB Opaque Plate; […] Type B Glasfiber filter
In order to prepare the filter plates, the presoak solution is aspirated by vacuum filtration. The plates are flushed twice with 200 μL flush buffer. 200 μL blocking buffer is added to the filter plate. The filter plate is then incubated with 200 μL presoak solution for 1 hour at room temperature.
The assay plate is filled with […] (2.5 μg) suspended in assay buffer, 25 μL compound (agonist) in assay buffer, and 25 μL tracer (about 40000 cpm) in assay buffer. The filled plate is incubated for 1 hour with shaking.
The transfer from assay plate to filter plate is conducted. The blocking buffer is aspirated by vacuum filtration and washed two times with flush buffer. 90 μL is transferred from the assay plate to the filter plate. The 90 μL transferred from assay plate is aspirated and washed three times with 200 μL flush buffer. The plastic support is removed. It is dried for 1 hour at 60° C. 30 μL Microscint is added. The count is performed. […]

On human VPAC2, “HSDAYFTDNYTRLRKQMAVKKYLNSILN [VIP, reference compound]” showed an EC50 of 1 nM. For the same sequence, the IC50 at human PAC1 is greater than 1000 nM.
